Experimental data from PMC7504044 (2020).

Key:
[1] = target: T1, GST–TM (transmembrane domain of β-DG fused to GST) (human); test: SPR
T1 chain: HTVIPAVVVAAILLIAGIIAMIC

[2] = target: T2, GST–β-DG (full-length β-dystroglycan fused to GST) (human, UniProt Q14118 654-895); test: SPR
T2 chain: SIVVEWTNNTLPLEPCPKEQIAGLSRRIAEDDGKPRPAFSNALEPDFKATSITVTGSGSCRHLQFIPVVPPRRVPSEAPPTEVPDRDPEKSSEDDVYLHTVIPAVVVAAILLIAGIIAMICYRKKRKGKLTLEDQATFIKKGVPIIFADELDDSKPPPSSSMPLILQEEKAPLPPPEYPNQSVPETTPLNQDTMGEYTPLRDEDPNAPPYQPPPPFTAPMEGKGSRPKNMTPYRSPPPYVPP

B1: GST–emerin (full-length emerin fused to GST) (natural protein)
chain: MDNYADLSDTELTTLLRRYNIPHGPVVGSTRRLYEKKIFEYETQRRRLSPPSSSAASSYSFSDLNSTRGDADMYDLPKKEDALLYQSKGYNDDYYEESYFTTRTYGEPESAGPSRAVRQSVTSFPDADAFHHQVHDDDLLSSSEEECKDRERPMYGRDSAYQSITHYRPVSASRSSLDLSYYPTSSSTSFMSSSSSSSSWLTRRAIRPENRAPGAGLGQDRQVPLWGQLLLFLVFVIVLFFIYHFMQAEEGNPF
koff [1]: 0.00215 s⁻¹
koff [2]: 0.00205 s⁻¹
